Assay results from paper PMC8199245, “Serotonin Promotes Serum Albumin Interaction with the Monomeric Amyloid β Peptide” (International Journal of Molecular Sciences, 2021).

Key:
[1] = molecular target: HSA–monomeric Aβ40 (recombinant human Aβ40) (Homo sapiens, UniProt P02768); test: SPR of HSA interaction with immobilized monomeric Aβ40, without/with SRO or TRP; conditions: read-out: KD (effective equilibrium dissociation constant); column head KD × 10^7, i.e. KD = value × 10^−7 M; HSA without ligand; SPR 25 °C, pH 7.4; HSA 5–60 µM; mean ± SD over HSA concentrations
Description: The recombinant human Aβ40 or Aβ42 sample was immobilized on the surface of the SPR sensor chip by amine coupling, followed by removal from the surface of the non-covalently bound Aβ molecules by a 2% SDS water solution [12]. […] (5–60 µM) was used as an analyte.
Aβ40/Aβ42 was immobilized on the sensor chip’s surface by amine coupling.
Recombinant human Aβ40/Aβ42 samples were pretreated for SPR measurements mainly as described in [46]. The freeze-dried Aβ sample was dissolved in neat TFA at a concentration of 0.5–1 mg/mL. The solution was sonicated for 30 s. TFA was evaporated using Eppendorf Concentrator plus. The dried Aβ sample was dissolved in DMSO at a concentration of 2 mg/mL, and stored at −20 °C.
SPR measurements were performed at 25 °C using a Bio-Rad ProteOn™ XPR36 instrument mainly as previously described. Ligand (57 μg/mL recombinant human Aβ40/Aβ42 in 10 mM sodium acetate, pH 4.5 buffer) was immobilized on a ProteOn GLH sensor chip surface (up to 7000–9000 RUs) by amine coupling. The remaining activated amine groups on the chip surface were blocked by 1 M ethanolamine solution. The non-covalently bound Aβ40/Aβ42 molecules were washed from the chip surface with 2% SDS water solution until stabilization of the signal. […] The sensor chip surface was regenerated by passage of 10 mM EDTA pH 7.9 solution containing 2% SDS. […]

Aβ = conditions: cited from earlier work
Aβ in blood plasma = system: Aβ in blood plasma; parameters: method as in PMID 8955133; conditions: cited from earlier work
AD patients = conditions: plasma exchange with replacement by therapeutic HSA; cited from earlier work
Description: An alternative, less invasive approach to the lowering of the free Aβ level in the brain is a pharmacologically guided shift in the equilibrium between HSA and Aβ towards their complex. The latter possibility was recently confirmed by arachidonic/linoleic-aci ...

For “HSA: human serum albumin, 66.5 kDa; fatty-acid-free sample (Merck #126654) in the experiments”, the Kd [1] is listed as 0.06 ± 0.03 µM, the “protection of Aβ from self-aggregation and cytotoxicity” value (Aβ) is listed as “effectively rescues Aβ from deleterious self-aggregation and cytotoxicity” and the “share of total amyloid inhibitory activity of plasma proteins” value (Aβ) is listed as ~60%. For the same substance, the “fraction of Aβ bound to HSA in blood plasma” value (Aβ in blood plasma) was ~89% and the “memory and language functions” value (AD patients) was “persistent improvements in the memory and language functions of the patients”.
